Yeast mating assay 1: variants of the scFv Ab-14

Reference: Engelhart et al. 2022, doi:10.1038/s41597-022-01779-4. File: FLAb, binding data.

Binding partner: SARS-CoV-2 spike HR2 peptide, sequence PDVDLGDISGINAS.

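The parent was found by panning a naive human phage display library on the peptide. Variants in AAYL49 differ from the parent at up to three CDR positions; double and triple changes were sampled at random. AlphaSeq pools MATa yeast showing the antibodies with MATalpha yeast showing the peptide. Pairs that bind mate more often; barcode pairs of the diploids are counted by sequencing. Read counts were normalised to the haploid input and turned into Kd by a linear fit to BCL2-family pairs of known affinity, for each replicate. There are three technical replicates.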

Parent scFv Ab-14: VH joined to VL by the linker GGGGSGGGGSGGGGS. Changes lie in the heavy chain CDRs alone.
VH: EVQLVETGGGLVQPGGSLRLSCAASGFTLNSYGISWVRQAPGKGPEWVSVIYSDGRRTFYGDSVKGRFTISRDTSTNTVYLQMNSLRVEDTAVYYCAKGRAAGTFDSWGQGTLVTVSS
VL: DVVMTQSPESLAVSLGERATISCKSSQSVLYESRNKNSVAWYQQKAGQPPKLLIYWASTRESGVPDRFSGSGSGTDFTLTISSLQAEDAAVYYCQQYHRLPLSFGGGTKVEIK

Variants are written as CDR1, CDR2 and CDR3 of the heavy chain (limits as in the source). Parent: GFTLNSYGIS, VIYSDGRRTFYGDSVK, GRAAGTFDS. Values are log10 of the apparent Kd in nM; lower means stronger binding. The mean shown is taken over the replicates in which the pair was detected. An entry "n.d." has no value in the source: the pair was not observed among the diploids in that replicate. This suggests poor binding but is not conclusive. Background: pairings of library AAYL49 with three empty control strains gave a value in 15% of cases (median 4.06, 5th percentile 2.83). Values in that range, when seen in few replicates, are hard to tell from nonspecific mating. The control count says in how many pairings with the empty strains this scFv gave a signal, with their mean in brackets. For reference, the parent read 0.65 as the reference entry and 4.11 (one replicate of three) as a member of this library.

{"CDR-H1": "GFTLNSWGIS", "CDR-H2": "SIYLDGRRTFYGDSVK", "CDR-H3": "GRAAGTFDS", "log10 Kd, replicates": "3.28 / n.d. / 4.88", "mean, log10 nM": "4.08", "signal with controls": "3/9 (4.23)"}
{"CDR-H1": "GSFLNSYGES", "CDR-H2": "VIYSDGRRTFYGDSVK", "CDR-H3": "GRAAGTFDS", "log10 Kd, replicates": "n.d. / n.d. / n.d.", "mean, log10 nM": "n.d.", "signal with controls": "0/9"}
{"CDR-H1": "GFTLCSYGIS", "CDR-H2": "VIWSDGRRTFYGDSVK", "CDR-H3": "GRATGTFDS", "log10 Kd, replicates": "n.d. / n.d. / n.d.", "mean, log10 nM": "n.d.", "signal with controls": "0/9"}
{"CDR-H1": "GFTLNSYWIS", "CDR-H2": "VIYSDGRTTLYGDSVK", "CDR-H3": "GRAAGTFDS", "log10 Kd, replicates": "n.d. / n.d. / n.d.", "mean, log10 nM": "n.d.", "signal with controls": "0/9"}
{"CDR-H1": "GFTLNSVGIS", "CDR-H2": "VIYSDGRRTFYMDSVK", "CDR-H3": "GRAAGTWDS", "log10 Kd, replicates": "n.d. / n.d. / n.d.", "mean, log10 nM": "n.d.", "signal with controls": "0/9"}
{"CDR-H1": "GFTLNSYGIS", "CDR-H2": "VQYSDGRRTFYCDSVK", "CDR-H3": "GRALGTFDS", "log10 Kd, replicates": "n.d. / n.d. / 5.34", "mean, log10 nM": "5.34", "signal with controls": "2/9 (4.23)"}
{"CDR-H1": "MGTLNSYGIS", "CDR-H2": "VIYSDGRRTFYGDSVK", "CDR-H3": "GRAAGTFDF", "log10 Kd, replicates": "2.86 / 2.44 / 2.24", "mean, log10 nM": "2.52", "signal with controls": "0/9"}
{"CDR-H1": "GFTLNSYGIS", "CDR-H2": "TIHSDGRRTHYGDSVK", "CDR-H3": "GRAAGTFDS", "log10 Kd, replicates": "n.d. / n.d. / n.d.", "mean, log10 nM": "n.d.", "signal with controls": "0/9"}
{"CDR-H1": "GATLNSYGFA", "CDR-H2": "VIYSDGRRTFYGDSVK", "CDR-H3": "GRAAGTFDS", "log10 Kd, replicates": "n.d. / n.d. / n.d.", "mean, log10 nM": "n.d.", "signal with controls": "2/9 (3.83)"}
{"CDR-H1": "GFPLNSYGIS", "CDR-H2": "VYYSDGRRTIYGDSVK", "CDR-H3": "GRAAGTFDS", "log10 Kd, replicates": "2.66 / n.d. / n.d.", "mean, log10 nM": "2.66", "signal with controls": "0/9"}
{"CDR-H1": "GFTLNSGGIS", "CDR-H2": "VIYSDGRRTFRGDSVK", "CDR-H3": "GRACGTFDS", "log10 Kd, replicates": "n.d. / 2.99 / n.d.", "mean, log10 nM": "2.99", "signal with controls": "0/9"}
{"CDR-H1": "GFTLNSYGIS", "CDR-H2": "VIYSNGRRTFYGDSVK", "CDR-H3": "GRSTGTFDS", "log10 Kd, replicates": "4.82 / 4.73 / 4.11", "mean, log10 nM": "4.56", "signal with controls": "1/9 (3.33)"}
{"CDR-H1": "GFTLNSYGIS", "CDR-H2": "VHYSDGRRTFYGDSVK", "CDR-H3": "GRAAYTFDL", "log10 Kd, replicates": "n.d. / n.d. / n.d.", "mean, log10 nM": "n.d.", "signal with controls": "0/9"}
{"CDR-H1": "RFTYNSYGIS", "CDR-H2": "VIYSDGRRTFYGDSMK", "CDR-H3": "GRAAGTFDS", "log10 Kd, replicates": "6.36 / 4.13 / n.d.", "mean, log10 nM": "5.25", "signal with controls": "4/9 (4.22)"}
{"CDR-H1": "GFTLNSYGIS", "CDR-H2": "VIYSTGRRKFYGDSVK", "CDR-H3": "GRAAGAFDS", "log10 Kd, replicates": "n.d. / n.d. / n.d.", "mean, log10 nM": "n.d.", "signal with controls": "0/9"}
{"CDR-H1": "GFTLGSYGIS", "CDR-H2": "VIYSDGRRMFYGDSVK", "CDR-H3": "GRAAGTFDS", "log10 Kd, replicates": "1.23 / 1.80 / 2.01", "mean, log10 nM": "1.68", "signal with controls": "2/9 (3.69)"}
{"CDR-H1": "GFTLNSYGIS", "CDR-H2": "VIYSDGRRTFYGDSVK", "CDR-H3": "GRAKGTDDQ", "log10 Kd, replicates": "n.d. / 3.91 / n.d.", "mean, log10 nM": "3.91", "signal with controls": "2/9 (4.15)"}
{"CDR-H1": "GFTLNSYGIS", "CDR-H2": "VIYSDGRRTFYGDSVK", "CDR-H3": "GRAAGTFDE", "log10 Kd, replicates": "n.d. / n.d. / n.d.", "mean, log10 nM": "n.d.", "signal with controls": "0/9"}
{"CDR-H1": "GFTLFSYGIS", "CDR-H2": "EIRSDGRRTFYGDSVK", "CDR-H3": "GRAAGTFDS", "log10 Kd, replicates": "3.99 / 5.07 / n.d.", "mean, log10 nM": "4.53", "signal with controls": "4/9 (4.22)"}
{"CDR-H1": "GFTLDSYGIS", "CDR-H2": "VINSDGRRFFYGDSVK", "CDR-H3": "GRAAGTFDS", "log10 Kd, replicates": "3.90 / n.d. / n.d.", "mean, log10 nM": "3.90", "signal with controls": "1/9 (3.70)"}
{"CDR-H1": "RFTLNSYGIS", "CDR-H2": "VIYSDGRRTFYGDSVK", "CDR-H3": "IRKAGTFDS", "log10 Kd, replicates": "n.d. / n.d. / n.d.", "mean, log10 nM": "n.d.", "signal with controls": "0/9"}
{"CDR-H1": "GKTDNSYGIS", "CDR-H2": "VIYSDGRRTFYGDSVK", "CDR-H3": "GWAAGTFDS", "log10 Kd, replicates": "n.d. / n.d. / n.d.", "mean, log10 nM": "n.d.", "signal with controls": "0/9"}
{"CDR-H1": "WFTLNSVGIS", "CDR-H2": "VIYSDGRRCFYGDSVK", "CDR-H3": "GRAAGTFDS", "log10 Kd, replicates": "n.d. / n.d. / n.d.", "mean, log10 nM": "n.d.", "signal with controls": "3/9 (4.70)"}
{"CDR-H1": "GATLNSYGIS", "CDR-H2": "VIYSDGRVTFYGDSVK", "CDR-H3": "GRDAGTFDS", "log10 Kd, replicates": "n.d. / 3.64 / n.d.", "mean, log10 nM": "3.64", "signal with controls": "2/9 (4.37)"}
{"CDR-H1": "GFTNNSYGIS", "CDR-H2": "VIYSDGRRTFYGDSVK", "CDR-H3": "GRAAGTFDD", "log10 Kd, replicates": "n.d. / n.d. / n.d.", "mean, log10 nM": "n.d.", "signal with controls": "1/9 (3.20)"}
{"CDR-H1": "GFTLNSYGIS", "CDR-H2": "VIYFDGRRTFYGDPVK", "CDR-H3": "GDAAGTFDS", "log10 Kd, replicates": "2.01 / 2.13 / 2.04", "mean, log10 nM": "2.06", "signal with controls": "4/9 (3.90)"}
{"CDR-H1": "GFTLNSYGIS", "CDR-H2": "VIYSDRRRTKYGDSVK", "CDR-H3": "GRAQGTFDS", "log10 Kd, replicates": "n.d. / n.d. / n.d.", "mean, log10 nM": "n.d.", "signal with controls": "0/9"}
{"CDR-H1": "GFTLNSYGIQ", "CDR-H2": "VIYSDGRRQFYGDSVK", "CDR-H3": "GRCAGTFDS", "log10 Kd, replicates": "n.d. / n.d. / n.d.", "mean, log10 nM": "n.d.", "signal with controls": "2/9 (2.94)"}
{"CDR-H1": "GFTLNSYGIS", "CDR-H2": "VIYSDGRRTFMGDSEK", "CDR-H3": "GRTAGTFDS", "log10 Kd, replicates": "1.30 / 1.16 / 1.38", "mean, log10 nM": "1.28", "signal with controls": "1/9 (4.70)"}
{"CDR-H1": "GFTLNSYGIS", "CDR-H2": "VIYSDGRRTKYGDSVK", "CDR-H3": "GRNYGTFDS", "log10 Kd, replicates": "4.80 / 3.55 / 6.03", "mean, log10 nM": "4.79", "signal with controls": "5/9 (4.14)"}
{"CDR-H1": "GFTLNSGGIS", "CDR-H2": "VIYSDCRRTFYGQSVK", "CDR-H3": "GRAAGTFDS", "log10 Kd, replicates": "n.d. / n.d. / n.d.", "mean, log10 nM": "n.d.", "signal with controls": "1/9 (4.16)"}

From the list, the first 2 with no signal in any replicate:

| CDR-H1 | CDR-H2 | CDR-H3 | log10 Kd, replicates | mean, log10 nM | signal with controls |
|---|---|---|---|---|---|
| GSFLNSYGES | VIYSDGRRTFYGDSVK | GRAAGTFDS | n.d. / n.d. / n.d. | n.d. | 0/9 |
| GFTLCSYGIS | VIWSDGRRTFYGDSVK | GRATGTFDS | n.d. / n.d. / n.d. | n.d. | 0/9 |